# Test results published in ChEMBL document CHEMBL1130235, “4-hydroxy-5,6-dihydropyrones. 2. Potent non-peptide inhibitors of HIV protease” (J Med Chem, 1997).
# pIC50: −log10 of the molar value.
# Target: Human immunodeficiency virus type 1 protease (Human immunodeficiency virus 1, UniProt Q72874)
# Test: Inhibitory activity against HIV protease at pH 6.2
smiles,measurement,value
CC(C)c1ccccc1Sc1c(O)cc(-c2ccccc2)oc1=O,pIC50,6.15
